Patent US10543199B2, “Macrocycle and composition comprising thereof” (Shenzhen TargetRx, Inc., priority 2016, dated 2020)

How the values were obtained:
[1] = Metabolic stability in human liver microsomes; type: in vitro ADME; settings: human liver microsomes 0.5 mg/mL, compound 1 μM
Method: (§1) Metabolic Experiment of Liver Microparticle.
(§2) Experiments in microsomes: Human liver microsomes: 0.5 mg/mL, Xenotech; Rat liver microsomes: 0.5 mg/mL, Xenotech; Coenzyme (NADPH/NADH): 1 mM, Sigma Life Science; Magnesium chloride: 5 mM, 100 mM phosphate buffer (pH 7.4).
(§3) Preparation of stock solution: Powder of the example compound 2-8 was accurately weighed and dissolved in DMSO to 5 mM.
(§4) Preparation of phosphate buffer (100 mM, pH7.4): A pre-formulated 0.5M potassium dihydrogen phosphate (150 mL) was mixed with 0.5M dibasic potassium phosphate (700 mL). The pH of the mixture was adjusted to 7.4 with 0.5M dibasic potassium phosphate solution. The mixture was diluted 5-fold with ultrapure water before use, and magnesium chloride was added to obtain a phosphate buffer (100 mM) containing 100 mM potassium phosphate, 3.3 mM magnesium chloride, pH 7.4.
(§5) A NADPH regeneration system solution (containing 6.5 mM NADP, 16.5 mM G-6-P, 3 U/mL G-6-PD, 3.3 mM magnesium chloride) was prepared and placed on wet ice prior to use.
(§6) Preparation of stop solution: acetonitrile solution containing 50 ng/mL propranolol hydrochloride and 200 ng/mL tolbutamide (internal standard). 25057.5 μL of phosphate buffer (pH 7.4) was taken into a 50 mL centrifuge tube, to which 812.5 μL human liver microsomes were added, and mixed to obtain a liver microsome dilution solution with a protein concentration of 0.625 mg/mL. 25057.5 μL of phosphate buffer (pH 7.4) was taken into a 50 mL centrifuge tube, to which 812.5 μL SD rat liver microsomes were added, and mixed to obtain a liver microsome dilution solution with a protein concentration of 0.625 mg/mL.
(§7) Incubation of the samples: The stock solution of the respective compound was respectively diluted to 0.25 mM with an aqueous solution containing 70% acetonitrile, and used as a working solution, ready for use. 398 μL of the dilution solution of human liver microsomes or rat liver microsome were added to a 96-well incubation plate (N=2), respectively, and 2 μL of 0.25 mM working solution was added and mixed.
(§8) Metabolic stability assay: 300 μL of pre-chilled stop solution was added to each well of a 96-well deep well plate and placed on ice as a stop plate. The 96 well incubation plate and NADPH regeneration system were placed in a 37° C. water bath box, shaken at 100 rpm and pre-incubated for 5 min. 80 μL of incubation solution was taken out from each well of the incubation plate and added to the stop plate, mixed, and replenished with 20 μL of NADPH regeneration system solution as a 0-min sample. 80 μL of NADPH regeneration system solution was added to each well of the incubation plate to start the reaction and start counting. […] Separately, 100 μL of the reaction solution was taken at 10, 30, and 90 min reaction, respectively, added to a stop plate, and vortexed for 3 minutes to terminate the reaction. The stop plate was centrifuged at 5000×g at 4° C. for 4 min. 100 μL of the supernatant was added to a 96-well plate to which 100 μL of distilled water was previously added, mixed, and analyzed by LC-MS/MS.
(§9) Data analysis: The peak areas of the corresponding compound and internal standard were detected by LC-MS/MS system, and the ratio of the peak area of the compound to the internal standard was calculated.

[2] = Metabolic stability in rat liver microsomes; type: in vitro ADME, SD rat; settings: rat liver microsomes 0.5 mg/mL, compound 1 μM
Method: as §1, §2, §3, §4, §5, §6, §7, §8, §9

SMILES | CLint [1] [µL/min/mg] | t1/2 [1] [h] | CLint [2] [µL/min/mg] | t1/2 [2] [h]
[2H]C1([2H])c2nn(C)c(C#N)c2-c2cnc(N)c(c2)OC(C)c2cc(F)ccc2C(=O)N1C (racemic) [Compound 72] | <9.6 | >2.42 | <9.6 | 2.42
[2H]C([2H])([2H])N1Cc2nn(C)c(C#N)c2-c2cnc(N)c(c2)OC(C)c2cc(F)ccc2C1=O (stereo not drawn) [Compound 18] | <9.6 | >2.42 | <9.6 | 2.42
C[C@H]1Oc2cc(cnc2N)-c2c(nn(C)c2C#N)CN(C)C(=O)c2ccc(F)cc21 [PF-06463922, reference compound] | – | – | <9.6 | 2.42

Other lines, results leading:

CLint [1] [µL/min/mg] | t1/2 [1] [h] | CLint [2] [µL/min/mg] | t1/2 [2] [h] | SMILES
– | – | <9.6 | 2.42 | [2H]C([2H])([2H])n1nc2c(c1C#N)-c1cnc(N)c(c1)OC(C)c1cc(F)ccc1C(=O)N(C)C2 (stereo not drawn) [Compound 28]
<9.6 | >2.42 | <9.6 | 2.42 | [2H]C([2H])([2H])C1([2H])Oc2cc(cnc2N)-c2c(nn(C)c2C#N)CN(C)C(=O)c2ccc(F)cc21 (stereo not drawn) [Compound 45]
<9.6 | >2.42 | <9.6 | 2.42 | [2H]C([2H])([2H])N1Cc2nn(C([2H])([2H])[2H])c(C#N)c2-c2cnc(N)c(c2)OC(C)c2cc(F)ccc2C1=O (stereo not drawn) [Compound 58]
<9.6 | >2.42 | <9.6 | 2.42 | [2H]C([2H])([2H])n1nc2c(c1C#N)-c1cnc(N)c(c1)OC([2H])(C([2H])([2H])[2H])c1cc(F)ccc1C(=O)N(C)C2 (stereo not drawn) [Compound 76]
